Laboratory results as given in patent US20170183404A1.

Key:
[1] = target: Delta mMor1 (recombinant mouse mu-type opioid receptor) (mouse) (UniProt P42866); test: [3H]-diprenorphine competition on Delta mMor1/Sf9 membranes in presence of 5 µM XA8633
[2] = target: Delta mMor1 (recombinant mouse mu-type opioid receptor) (mouse) (UniProt P42866); test: [3H]-diprenorphine competition on Delta mMor1/Sf9 membranes in presence of mock VHH CA4910
[3] = target: Delta mMor1 (recombinant mouse mu-type opioid receptor) (mouse) (UniProt P42866); test: [3H]-diprenorphine radioligand competition on Delta mMor1/Sf9 membranes

IC50 [1]: 57 nM | IC50 [2]: 550 nM | IC50 [3]: 511 nM
Substance: Dmt1-Dalda (peptide)
